Source: ChEMBL document CHEMBL1133039, “Stability of bioreductive drug delivery systems containing melphalan is influenced by conformational constraint and electronic properties of substituents” (2000)

Experiments:
[1] = Degradation under physiological pH 7.4 in the presence of glutathione; settings: gsh
[2] = Degradation under physiological pH 7.4; settings: buffer
[3] = Degradation under physiological pH 9.0; settings: buffer
[4] = Degradation under physiological pH 9.0; Instantaneous; settings: buffer

Structure (SMILES): COC(=O)C(Cc1ccc(N(CCCl)CCCl)cc1)NC(=O)CC(C)(C)C1=C(C)C(=O)C(C)=C(C)C1=O (stereo not drawn)
- T1/2 [1]: 3.37 h
- T1/2 [2]: 7.97 h
- T1/2 [3]: 6.32 min

Structure (SMILES): COC(=O)C(Cc1ccc(N(CCCl)CCCl)cc1)NC(=O)CC(C)(C)C1=C(C)C(=O)C(C)=CC1=O (stereo not drawn)
- T1/2 [1]: 0.533 h
- T1/2 [2]: 1.47 h
- T1/2 [3]: < 1 min

Structure (SMILES): COC(=O)C(N)Cc1ccc(N(CCCl)CCCl)cc1 (stereo not drawn)
- T1/2 [4]: Instantaneous
- T1/2 [1]: 0.65 h
- T1/2 [2]: 0.617 h

Structure (SMILES): CNC1=C(C)C(=O)C(C)=C(C(C)(C)CC(=O)NC(Cc2ccc(N(CCCl)CCCl)cc2)C(=O)OC)C1=O (stereo not drawn)
- T1/2 [1]: 2.23 h
- T1/2 [2]: 1.45 h
- T1/2 [3]: 1.22 min

Structure (SMILES): COC(=O)C(Cc1ccc(N(CCCl)CCCl)cc1)NC(=O)CC(C)(C)C1=C(C)C(=O)C(C)=C(C2=CC=C2)C1=O (stereo not drawn)
- T1/2 [1]: 1.4 h
- T1/2 [2]: 1.53 h
- T1/2 [3]: 1 min

Structure (SMILES): COC(=O)C(Cc1ccc(N(CCCl)CCCl)cc1)NC(=O)CC(C)(C)C1=C(C)C(=O)C(C)=C(Br)C1=O (stereo not drawn)
- T1/2 [1]: < 0.0167 h
- T1/2 [2]: 1.13 h
- T1/2 [3]: < 1 min
